Values quoted from earlier work in US20170298446A1, “BIOMARKERS OF BRUTON TYROSINE KINASE INHIBITOR RESISTANCE” (OHIO STATE INNOVATION FOUNDATION, priority 2014, published 2017).
Like-named read-outs stand apart in the source and are kept apart here.

By UniProt entry, the sequences of proteins in these tests, tags left out. Where a name states a change or a piece, a line headed by the entry shows the natural chain unless it says otherwise.
UniProt Q06187: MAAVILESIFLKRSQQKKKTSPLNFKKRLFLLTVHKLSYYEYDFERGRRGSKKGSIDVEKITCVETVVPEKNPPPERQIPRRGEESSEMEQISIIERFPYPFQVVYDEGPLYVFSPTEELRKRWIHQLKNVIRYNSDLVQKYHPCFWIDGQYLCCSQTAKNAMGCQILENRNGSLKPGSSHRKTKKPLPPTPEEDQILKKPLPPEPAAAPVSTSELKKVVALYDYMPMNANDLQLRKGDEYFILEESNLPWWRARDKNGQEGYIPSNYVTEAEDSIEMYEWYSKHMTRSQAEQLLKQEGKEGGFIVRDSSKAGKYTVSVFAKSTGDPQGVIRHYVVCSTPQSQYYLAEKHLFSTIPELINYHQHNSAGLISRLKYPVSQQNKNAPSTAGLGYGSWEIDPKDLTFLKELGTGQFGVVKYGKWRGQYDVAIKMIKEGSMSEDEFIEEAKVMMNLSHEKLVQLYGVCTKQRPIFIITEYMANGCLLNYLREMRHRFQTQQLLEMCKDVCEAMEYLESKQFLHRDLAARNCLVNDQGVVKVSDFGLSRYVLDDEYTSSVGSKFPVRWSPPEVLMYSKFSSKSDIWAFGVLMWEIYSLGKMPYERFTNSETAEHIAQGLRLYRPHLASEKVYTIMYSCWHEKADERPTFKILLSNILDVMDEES

How the values were obtained:
[1] = target: T1, BTK (Homo sapiens, UniProt Q06187); conditions: biochemical kinase / enzymology assays; read-out: IC50 against BTK
[2] = target: T1, BTK; conditions: cellular assays; read-out: IC50 towards BTK in cellular assays

- IC50 [1]: < 1 nM
- IC50 [2]: 1 to 10 nM
SMILES: C=CC(=O)Nc1cccc(Nc2nc(Nc3ccc(Oc4ccnc(C(=O)NC)c4)cc3)ncc2F)c1 [CNX-774, 4-(4-((4-((3-acrylamidophenyl)amino)-5-fluoropyrimidin-2-yl)amino)phenoxy)-N-methylpicolinamide]
